# Laboratory results: US10213415B2, “Compounds as opioid receptor modulators” (JANSSEN PHARMACEUTICA NV, priority 2004, dated 2019)
# The chains behind the UniProt entries cited, without tags or fusion partners.
# UniProt P35372, whole entry: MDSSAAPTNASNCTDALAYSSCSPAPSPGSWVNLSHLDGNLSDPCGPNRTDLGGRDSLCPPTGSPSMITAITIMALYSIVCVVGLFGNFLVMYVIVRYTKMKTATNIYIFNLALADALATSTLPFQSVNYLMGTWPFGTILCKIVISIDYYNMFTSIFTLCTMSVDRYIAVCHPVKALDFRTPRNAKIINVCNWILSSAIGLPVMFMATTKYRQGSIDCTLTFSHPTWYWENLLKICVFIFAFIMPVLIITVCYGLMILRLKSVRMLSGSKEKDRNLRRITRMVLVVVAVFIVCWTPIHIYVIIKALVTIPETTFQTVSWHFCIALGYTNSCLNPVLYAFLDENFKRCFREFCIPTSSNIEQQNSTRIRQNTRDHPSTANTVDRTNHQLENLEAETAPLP
# UniProt P33533, whole entry: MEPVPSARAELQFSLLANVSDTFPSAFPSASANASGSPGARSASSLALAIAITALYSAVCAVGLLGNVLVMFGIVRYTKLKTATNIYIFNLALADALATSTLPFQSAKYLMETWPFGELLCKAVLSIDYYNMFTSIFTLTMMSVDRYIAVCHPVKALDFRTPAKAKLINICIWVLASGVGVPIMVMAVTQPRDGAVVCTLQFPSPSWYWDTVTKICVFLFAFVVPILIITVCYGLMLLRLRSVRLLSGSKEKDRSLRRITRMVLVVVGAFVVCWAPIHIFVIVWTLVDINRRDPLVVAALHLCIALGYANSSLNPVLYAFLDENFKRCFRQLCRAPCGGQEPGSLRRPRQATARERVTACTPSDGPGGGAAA
# UniProt P32300, whole entry: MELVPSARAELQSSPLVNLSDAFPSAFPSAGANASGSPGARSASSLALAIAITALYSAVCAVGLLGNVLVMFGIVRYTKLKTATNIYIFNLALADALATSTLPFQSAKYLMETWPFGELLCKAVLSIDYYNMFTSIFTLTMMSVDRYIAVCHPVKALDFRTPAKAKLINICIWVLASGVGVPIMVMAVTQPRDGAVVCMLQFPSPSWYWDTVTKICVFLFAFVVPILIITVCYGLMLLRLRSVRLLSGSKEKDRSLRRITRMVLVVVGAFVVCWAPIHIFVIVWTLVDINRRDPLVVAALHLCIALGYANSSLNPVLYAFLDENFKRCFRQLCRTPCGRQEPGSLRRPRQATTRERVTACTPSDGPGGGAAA
# UniProt P33535, whole entry: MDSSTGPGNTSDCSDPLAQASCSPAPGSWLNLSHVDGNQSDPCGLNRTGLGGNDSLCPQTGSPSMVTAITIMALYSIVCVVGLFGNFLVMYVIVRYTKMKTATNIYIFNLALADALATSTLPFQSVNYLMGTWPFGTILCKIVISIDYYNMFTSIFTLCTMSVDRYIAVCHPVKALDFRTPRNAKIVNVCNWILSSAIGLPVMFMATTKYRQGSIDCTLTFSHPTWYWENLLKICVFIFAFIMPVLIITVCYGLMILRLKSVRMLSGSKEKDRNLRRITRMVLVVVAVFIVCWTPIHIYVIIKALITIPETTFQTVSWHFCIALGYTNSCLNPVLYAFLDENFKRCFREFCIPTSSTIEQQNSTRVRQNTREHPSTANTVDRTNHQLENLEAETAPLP
# What was measured:
# human mu opioid receptor = human mu opioid receptor (Homo sapiens, UniProt P35372); assay: Human Mu Opioid Receptor Binding Assay (CHO membranes, 3H-Damgo); settings: read-out: hKi μ
# [1] = target: mu opioid receptor (CHO-hMOR cell membranes) (Homo sapiens, UniProt P35372); assay: Mu Opioid Receptor Functional Assay: [35S]GTPγS Binding in CHO-hMOR Cell Membranes, Versions 1 and 2; settings: for EC50: read-out: MOR GTP binding assay v2 EC50, version 2; for MOR GTP binding assay_v2 (% I): version 2, % inhibition of agonist-stimulated GTPγS binding
# Procedure: CHO-hMOR cell membranes were purchased from Receptor Biology, Inc. (Baltimore, Md.). About 10 mg/ml of membrane protein was suspended in 10 mM TRIS-HCl pH 7.2, 2 mM EDTA, 10% sucrose, and the suspension kept on ice. One ml of membranes was added to 15 ml cold binding assay buffer containing 50 mM HEPES, pH 7.6, 5 mM MgCl2, 100 mM NaCl, 1 mM DTT and 1 mM EDTA. The membrane suspension was homogenized with a Polytron and centrifuged at 3,000 rpm for 10 min. The supernatant was then centrifuged at 18,000 rpm for 20 min. The pellet was resuspended in 10 ml assay buffer with a Polytron.
# The membranes were preincubated with wheat germ agglutinin coated SPA beads (Amersham) at 25° C. for 45 min in the assay buffer. The SPA bead (5 mg/ml) coupled membranes (10 μg/ml) were then incubated with 0.5 nM [^35S]GTPγS in the assay buffer. […] A range of concentrations of receptor agonists was used to stimulate [^35S]GTPγS binding. Both basal and non-specific binding was tested in the absence of agonist; non-specific binding determination included 10 μM unlabeled GTPγS.
# Compounds were tested for function as antagonists by evaluating their potential to inhibit agonist-stimulated GTPγS binding. Radioactivity was quantified on a Packard TopCount. The following parameters were calculated:
# [formula] % Inhibition=(% stimulation by 1 μM SNC80−% stimulation by 1 μM SNC80 in presence of test compound)×100/(% Stimulation by 1 μM SNC80−100)
# EC50 values were calculated using GraphPad Prism.
# delta opioid receptor [2] = target: T1, delta opioid receptor (Rattus norvegicus, UniProt P33533); assay: Rat Brain Delta Opioid Receptor Binding Assay-Version 1a ([3H]naltrindole); settings: read-out: r Ki δ Ver. 1a; rat forebrain membranes, 0.1 nM [3H]naltrindole; margin of error 10-20%
# Procedure: Male, Wistar rats (150-250 g, VAF, Charles River, Kingston, N.Y.) were killed by cervical dislocation, and their brains removed and placed immediately in ice-cold Tris HCl buffer (50 mM, pH 7.4). The forebrains were separated from the remainder of the brain by a coronal transection, beginning dorsally at the colliculi and passing ventrally through the midbrain-pontine junction. After dissection, the forebrains were homogenized in Tris buffer in a Teflon®-glass homogenizer. The homogenate was diluted to a concentration of 1 g of forebrain tissue per 80 mL Tris and centrifuged at 39,000×g for 10 min. The pellet was resuspended in the same volume of Tris buffer containing 5 mM MgCl2 with several brief pulses from a Polytron homogenizer. This particulate preparation was used for the delta opioid binding assay. Following incubation with 0.1 nM of the delta selective ligand [^3H]naltrindole at 25° C. for 2.5 h in a 96-well plate with total 1 mL, the plate contents were filtered through Wallac filtermat B sheets on a Tomtec 96-well harvester. […] To each sample area, Betaplate Scint scintillation fluid (LKB) was added and the resulting radioactivity quantified on a LKB (Wallac) 1205 BetaPlate liquid scintillation counter. Kd and Ki values were calculated using the GraphPad PRISM data analysis program.
# [3] = target: delta opioid receptor (NG108-15 cell membranes) (Mus musculus, UniProt P32300); assay: Delta Opioid Receptor Functional Assay: [35S]GTPγS Binding in NG108-15 Cell Membranes, Version 2; settings: for DOR GTP-binding Assay v2 (% I): % inhibition of agonist-stimulated GTPγS binding; for EC50: read-out: DOR GTP-binding Assay_v2_ EC50, [35S]GTPγS
# Procedure: NG108-15 cell membranes were purchased from Applied Cell Sciences (Rockville, Md.). 8 mg/ml of membrane protein suspended in 10 mM TRIS-HC pH 7.2, 2 mM EDTA, 10% sucrose.
# Membranes were maintained at 4-8° C. A portion (1 ml) of membranes was added into 10 ml cold binding assay buffer. The assay buffer contained 50 mM Tris, pH 7.6, 5 mM MgCl2, 100 mM NaCl, 1 mM DTT and 1 mM EGTA. The membrane suspension was homogenized with a Polytron for 2 times and centrifuged at 3000 rpm for 10 min. The supernent was then centrifuged at 18,000 rpm for 20 min. The pellet was saved in a tube and 10 ml assay buffer was added into the tube. The pellet and buffer were mixed with a Polytron.
# The pellet membranes (75 μg/ml) were preincubated with SPA (10 mg/ml) at 25° C. for 45 min in the assay buffer. The SPA (5 mg/ml) coupled with membranes (37.5 μg/ml) was then incubated with 0.1 nM [^35S] GTPγS in the same Tris buffer containing 100 μM GDP in total volume of 200 μl. Increasing concentrations of receptor agonists were used to stimulate [^35S] GTPγS binding. The basal binding was tested in the absent agonists and no specific binding was tested in the present 10 μM unlabeled GTPγS. The data were analyzed on a Top counter.
# [formula] % Inhibition=(% stimulation by 1 μM SNC80−% stimulation by 1 μM SNC80 in presence of test compound)×100/(% Stimulation by 1 μM SNC80−100) % of Basal=(stimulate−non specific)*100/(basal−non specific). EC50 values were calculated using GraphPad Prism.
# delta opioid receptor [4] = target: T1, delta opioid receptor; assay: Rat Brain Delta Opioid Receptor Binding Assay ([3H]DPDPE); settings: read-out: r Ki δ, rat forebrain membranes, margin of error 10-20%
# Procedure: Male, Wistar rats (150-250 g, VAF, Charles River, Kingston, N.Y.) are killed by cervical dislocation, and their brains removed and placed immediately in ice cold Tris HCl buffer (50 mM, pH 7.4). The forebrains are separated from the remainder of the brain by a coronal transection, beginning dorsally at the colliculi and passing ventrally through the midbrain-pontine junction. After dissection, the forebrains are homogenized in Tris buffer in a Teflon® glass homogenizer. The homogenate is diluted to a concentration of 1 g of forebrain tissue per 80 mL Tris and centrifuged at 39,000×g for 10 min. The pellet is resuspended in the same volume of Tris buffer containing 5 mM MgCl2 with several brief pulses from a Polytron homogenizer. This particulate preparation is used for the delta opioid binding assays. Following incubation with the delta selective peptide ligand ˜4 nM [^3H]DPDPE at 25° C. for 2.5 h in a 96-well plate with total volume of 1 mL, the plate contents are filtered through Wallac filtermat B sheets on a Tomtec 96-well harvester. The filters are rinsed three times with 2 mL of 10 mM HEPES (pH 7.4), and dried in a microwave oven 2 min twice. To each sample area 2×50 μL of Betaplate Scint scintillation fluid (LKB) is added and analyzed on a LKB (Wallac) 1205 BetaPlate liquid scintillation counter.
# The data are used to calculate either the % inhibition compared to control binding (when only a single concentration of test compound is evaluated) or a Ki value (when a range of concentrations is tested). % inhibition is calculated as: [(total dpm−test compound dpm)/(total dpm−nonspecific dpm)]*100. Kd and Ki values were calculated using GraphPad PRISM data analysis program.
# mu opioid receptor = mu opioid receptor (Rattus norvegicus, UniProt P33535); assay: Rat Brain Mu Opioid Receptor Binding Assay (and Version 2a, [3H]DAMGO); settings: read-out: r Ki μ, rat forebrain membranes, margin of error 10-20%
smiles,measurement,setting,value
COC(=O)c1cccc(CN(C(=O)[C@@H](N)Cc2ccc(C(N)=O)cc2)[C@@H](C)c2nc(-c3ccccc3)c[nH]2)c1,Ki,human mu opioid receptor,21.5 nM
same,EC50,[1],48 nM
same,MOR GTP binding assay_v2 (% I),[1],1.00%
same,Ki,delta opioid receptor [2],6.24 nM
same,DOR GTP-binding Assay v2 (% I),[3],21.18%
same,EC50,[3],86 nM
same,Ki,delta opioid receptor [4],0.61 nM
same,Ki,mu opioid receptor,0.37 nM
COc1ccc(CN(C(=O)[C@@H](N)Cc2ccc(C(N)=O)cc2)[C@H](C)c2nc(-c3ccccc3)c[nH]2)cc1C(=O)O,Ki,delta opioid receptor [4],6740 nM
same,Ki,mu opioid receptor,3570 nM
CC(=O)c1ccc(-c2nc(CN(C(=O)[C@@H](N)Cc3c(C)cc(O)cc3C)C(C)C)[nH]c2C)cc1,Ki,human mu opioid receptor,5.6 nM
Cc1cc(C(N)=O)cc(C)c1C[C@H](N)C(=O)N(Cc1cccc(C(=O)O)c1)[C@@H](C)c1nc(-c2cccc3ccccc23)c[nH]1,Ki,human mu opioid receptor,5.1 nM
same,Ki,delta opioid receptor [4],0.54 nM
same,Ki,mu opioid receptor,0.23 nM
Cc1cc(C(N)=O)cc(C)c1C[C@H](N)C(=O)N(Cc1cccc(C(=O)O)c1)[C@H](C)c1nc(-c2ccc(Cl)cc2)c(C)[nH]1,Ki,human mu opioid receptor,15.9 nM
same,Ki,delta opioid receptor [4],27.8 nM
same,Ki,mu opioid receptor,0.35 nM
COc1ccc(CN(C(=O)[C@@H](N)Cc2ccc(C(N)=O)cc2)[C@@H](C)c2nc(-c3ccc(Cl)cc3)c(C)[nH]2)cc1C(=O)O,DOR GTP-binding Assay v2 (% I),[3],72.08%
same,EC50,[3],3 nM
same,Ki,delta opioid receptor [4],0.47 nM
same,Ki,mu opioid receptor,0.69 nM
Cc1[nH]c([C@@H](C)N(Cc2cccc(C(=O)O)c2)C(=O)[C@@H](N)Cc2ccc(C(N)=O)cc2)nc1-c1ccc(Cl)cc1,Ki,delta opioid receptor [4],115 nM
same,Ki,mu opioid receptor,47 nM
Cc1[nH]c([C@H](C)N(Cc2cccc(C(=O)O)c2)C(=O)[C@@H](N)Cc2ccc(C(N)=O)cc2)nc1-c1ccc(Cl)cc1,Ki,delta opioid receptor [4],0.14 nM
same,Ki,mu opioid receptor,0.44 nM
COc1ccc(CN(C(=O)[C@H](N)Cc2ccc(C(N)=O)cc2)[C@@H](C)c2nc(-c3ccccc3)c[nH]2)cc1C(=O)O,Ki,human mu opioid receptor,325 nM
same,Ki,delta opioid receptor [4],1140 nM
same,Ki,mu opioid receptor,754 nM
Cc1cc(C(N)=O)cc(C)c1C[C@H](N)C(=O)N(Cc1cccc(C(=O)O)c1)Cc1nc(-c2ccccc2)c[nH]1,Ki,human mu opioid receptor,1.93 nM
same,Ki,delta opioid receptor [4],15.6 nM
same,Ki,mu opioid receptor,1.1 nM
COC(=O)c1cccc(CN(Cc2nc(-c3ccccc3)c[nH]2)C(=O)[C@@H](N)Cc2c(C)cc(C(N)=O)cc2C)c1,Ki,human mu opioid receptor,15.5 nM
same,Ki,delta opioid receptor [4],12.2 nM
same,Ki,mu opioid receptor,0.27 nM
COc1ccc(CN(C(=O)[C@@H](N)Cc2ccc(C(N)=O)cc2)[C@H](C)c2nc(-c3ccc(Cl)cc3)c(C)[nH]2)cc1C(=O)O,Ki,delta opioid receptor [4],1220 nM
same,Ki,mu opioid receptor,357 nM
COc1ccc(CN(C(=O)[C@@H](N)Cc2c(C)cc(C(N)=O)cc2C)[C@H](C)c2nc(-c3ccccc3)c[nH]2)cc1C(=O)O,Ki,delta opioid receptor [4],907 nM
same,Ki,mu opioid receptor,185 nM
COc1ccc(CN(C(=O)[C@@H](N)Cc2c(C)cc(C(N)=O)cc2C)[C@@H](C)c2nc(-c3ccccc3)c[nH]2)cc1C(=O)Nc1ccccc1,EC50,[1],2.6 nM
same,MOR GTP binding assay_v2 (% I),[1],76.20%
same,DOR GTP-binding Assay v2 (% I),[3],109.56%
same,EC50,[3],> 10000 nM
same,Ki,delta opioid receptor [4],0.76 nM
same,Ki,mu opioid receptor,0.09 nM
COc1ccc(CN(C(=O)[C@H](N)Cc2ccc(C(N)=O)cc2)[C@H](C)c2nc(-c3ccccc3)c[nH]2)cc1C(=O)O,Ki,delta opioid receptor [4],2900 nM
same,Ki,mu opioid receptor,1870 nM
Cc1cc(O)cc(C)c1C[C@H](N)C(=O)N(Cc1ccc2c(c1)OCO2)[C@@H](C)c1nc(-c2ccccc2)c[nH]1,Ki,human mu opioid receptor,19 nM
